The values below come from publication PMC7264150 (Nature Communications, 2020).

The test deals with Pl-TcdA1 (Photorhabdus luminescens, UniProt Q9RN43). Nature of the test: glycan microarray, AlexaFluor488-labelled toxin. The test is classed as binding. To be noted: glycan immobilised via amine linker; pH 7.4, 200 mM NaCl.

As for `CC(=O)N[C@H]1[C@H]([C@H](O)[C@H](O)CO)O[C@@](O[C@H]2[C@@H](O)[C@@H](CO)O[C@@H](O[C@H]3[C@H](O[C@@H]4O[C@@H](C)[C@@H](O)[C@@H](O)[C@@H]4O)[C@@H](NC(C)=O)C(O)O[C@@H]3CO)[C@@H]2O)(C(=O)O)C[C@@H]1O` (stereo partly shown), the “glycan microarray, AlexaFluor488-labelled toxin” value was “tetrasaccharides Lewis Y and sialyl-Lewis X interacted strongly with Pl-TcdA1”.
